Data published in PubChem BioAssay (NCI).
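Briefly, cells in 96-well plates were exposed to five compound concentrations for 48 h, and endpoints were estimated by linear interpolation. TGI: total growth inhibition.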

Assays:
Test in all cases: NCI-60 cell line screen, 48 h
786-0 renal = system: 786-0 renal
A498 renal = system: A498 renal
A549 NSCLC = system: A549 NSCLC
ACHN renal = system: ACHN renal
CCRF-CEM leukemia = system: CCRF-CEM leukemia
COLO 205 colon = system: COLO 205 colon
DU-145 prostate = system: DU-145 prostate
EKVX NSCLC = system: EKVX NSCLC
HCC-2998 colon = system: HCC-2998 colon
HCT-116 colon = system: HCT-116 colon
HL-60(TB) leukemia = system: HL-60(TB) leukemia
HOP-62 NSCLC = system: HOP-62 NSCLC
HOP-92 NSCLC = system: HOP-92 NSCLC
HT29 colon = system: HT29 colon
IGROV1 ovarian = system: IGROV1 ovarian
K-562 leukemia = system: K-562 leukemia
KM12 colon = system: KM12 colon
LOX IMVI melanoma = system: LOX IMVI melanoma
M14 melanoma = system: M14 melanoma
MALME-3M melanoma = system: MALME-3M melanoma
MCF7 breast = system: MCF7 breast
MDA-MB-231 breast = system: MDA-MB-231 breast
MDA-MB-435 = system: MDA-MB-435
MOLT-4 leukemia = system: MOLT-4 leukemia
NCI-H226 lung = system: NCI-H226 lung
NCI-H23 lung = system: NCI-H23 lung
NCI-H460 lung = system: NCI-H460 lung
NCI/ADR-RES ovarian = system: NCI/ADR-RES ovarian
OVCAR-4 ovarian = system: OVCAR-4 ovarian
OVCAR-5 ovarian = system: OVCAR-5 ovarian
OVCAR-8 ovarian = system: OVCAR-8 ovarian
RPMI-8226 leukemia = system: RPMI-8226 leukemia
RXF 393 renal = system: RXF 393 renal
SF-268 CNS = system: SF-268 CNS
SF-295 CNS = system: SF-295 CNS
SF-539 CNS = system: SF-539 CNS
SK-MEL-28 melanoma = system: SK-MEL-28 melanoma
SK-MEL-5 melanoma = system: SK-MEL-5 melanoma
SK-OV-3 ovarian = system: SK-OV-3 ovarian
SN12C renal = system: SN12C renal
SNB-19 CNS = system: SNB-19 CNS
SNB-75 CNS = system: SNB-75 CNS
SR leukemia = system: SR leukemia
SW-620 colon = system: SW-620 colon
T-47D breast = system: T-47D breast
TK-10 renal = system: TK-10 renal
U251 CNS = system: U251 CNS
UACC-257 melanoma = system: UACC-257 melanoma
UACC-62 melanoma = system: UACC-62 melanoma
UO-31 renal = system: UO-31 renal

Measured: TGI

O=C1NC(=NC2CCCCC2)C2(CCN(CCc3ccccc3)CC2)N1c1ccccc1
> 100 µM: all assays above
